Permeability data for macrocyclic peptides

Data: CycPeptMPDB; original report Townsend et al. 2020, doi:10.26434/chemrxiv.13335941.v1.

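The data file gives no further conditions (lipid, pH, time, direction or concentration), and values from different papers need not be comparable. The list need not hold all peptides of the study. Peptides that the database sets to -10, its floor, are left out.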

PAMPA measures passive passage through an artificial lipid membrane. Permeability is given as log10 of P in cm/s; higher (less negative) is more permeable.

| PAMPA (log10 cm/s) | structure (SMILES) |
|---|---|
| -6.20 | CC(C)C[C@H]1NC(=O)[C@H](C)NC(=O)[C@@H]2CCCN2C(=O)[C@H](Cc2ccccc2)NC(=O)[C@H](CC(C)C)N(C)C(=O)[C@H]2CCCN2C(=O)CN(Cc2ccccc2)C1=O |
| -6.13 | CC(C)C[C@@H]1NC(=O)[C@H](C)NC(=O)[C@@H]2CCCN2C(=O)[C@H](Cc2ccccc2)NC(=O)[C@H](CC(C)C)N(C)C(=O)[C@@H]2CCCN2C(=O)CN(Cc2ccccc2)C1=O |
| -5.21 | CC(C)C[C@@H]1NC(=O)[C@H](C)N(C)C(=O)[C@@H]2CCCN2C(=O)[C@H](Cc2ccccc2)NC(=O)[C@H](CC(C)C)N(C)C(=O)[C@H]2CCCN2C(=O)[C@H](CC(C)C)N(C)C1=O |
| -6.68 | CC(C)C[C@@H]1NC(=O)[C@@H](CC(C)C)NC(=O)[C@H](C)NC(=O)[C@H]2CCCN2C(=O)[C@H](Cc2ccccc2)NC(=O)CN(Cc2ccccc2)C(=O)[C@@H]2CCCN2C1=O |
| -6.22 | CC(C)C[C@H]1NC(=O)[C@@H](C)N(C)C(=O)[C@H](Cc2ccccc2)NC(=O)CN(Cc2ccccc2)C(=O)[C@H]2CCCN2C(=O)CN(Cc2ccccc2)C1=O |
| -5.77 | CC(C)C[C@H]1NC(=O)[C@@H](C)N(C)C(=O)[C@H]2CCCN2C(=O)[C@H](Cc2ccccc2)NC(=O)[C@H](CC(C)C)N(C)C(=O)[C@H]2CCCN2C(=O)CN(Cc2ccccc2)C1=O |
| -5.90 | CC(C)C[C@@H]1NC(=O)[C@H]2CCCN2C(=O)C[C@H](Cc2ccccc2)NC(=O)[C@@H](CC(C)C)N(C)C(=O)[C@H](C)N(C)C(=O)[C@@H]2CCCN2C(=O)[C@H](Cc2ccccc2)NC1=O |
| -5.66 | CC(C)C[C@@H]1C(=O)N[C@H](CC(C)C)C(=O)N2CCC[C@@H]2C(=O)N[C@H](CC(C)C)C(=O)N[C@@H](Cc2ccccc2)C(=O)N2CCC[C@@H]2C(=O)N(C)[C@@H](C)C(=O)N1C |
| -5.26 | CC(C)C[C@H]1C(=O)N(C)[C@@H](CC(C)C)C(=O)N2CCC[C@@H]2C(=O)N(C)[C@@H](CC(C)C)C(=O)N[C@@H](Cc2ccccc2)C(=O)N2CCC[C@@H]2C(=O)N[C@@H](Cc2ccccc2)CC(=O)N1C |
| -5.83 | CCCN1CC(=O)N[C@@H](CC(C)C)C(=O)N[C@H](CC(C)C)C(=O)N2CCC[C@@H]2C(=O)N[C@@H](CC(C)C)C(=O)N[C@@H](Cc2ccccc2)C(=O)N2CCC[C@@H]2C1=O |
| -5.67 | CC(C)C[C@@H]1NC(=O)[C@@H]2CCCN2C(=O)[C@@H](CC(C)C)N(C)C(=O)[C@@H](CC(C)C)NC(=O)[C@@H](C)NC(=O)[C@H](Cc2ccccc2)NC1=O |
| -6.54 | CC(C)C[C@@H]1NC(=O)[C@H]2CCCN2C(=O)CN(Cc2ccccc2)C(=O)[C@H](CC(C)C)NC(=O)[C@H](C)NC(=O)[C@H](Cc2ccccc2)NC1=O |
| -5.73 | CCCN1CC(=O)N(C)[C@H](CC(C)C)C(=O)N[C@@H](Cc2ccccc2)CC(=O)N2CCC[C@H]2C(=O)N[C@@H](CC(C)C)C(=O)N[C@@H](Cc2ccccc2)C(=O)N2CCC[C@H]2C1=O |
| -5.61 | CCCN1CC(=O)N[C@@H](CC(C)C)C(=O)N(C)[C@H](CC(C)C)C(=O)N2CCC[C@@H]2C(=O)N[C@@H](CC(C)C)C(=O)N[C@@H](Cc2ccccc2)C(=O)N2CCC[C@H]2C1=O |
| -5.32 | CC(C)C[C@@H]1NC(=O)[C@@H](CC(C)C)N(C)C(=O)C[C@H](Cc2ccccc2)NC(=O)[C@H](Cc2ccccc2)NC(=O)[C@@H](CC(C)C)N(C)C(=O)[C@H]2CCCN2C1=O |
| -5.79 | CC(C)C[C@@H]1NC(=O)CN(Cc2ccccc2)C(=O)C[C@H](Cc2ccccc2)NC(=O)[C@H]2CCCN2C(=O)[C@H](Cc2ccccc2)NC(=O)[C@@H](CC(C)C)NC(=O)[C@@H]2CCCN2C1=O |
| -5.50 | CCCN1CC(=O)N[C@H](CC(C)C)C(=O)N[C@@H](CC(C)C)C(=O)N2CCC[C@H]2C(=O)N(Cc2ccccc2)CC(=O)N[C@@H](Cc2ccccc2)C1=O |
| -5.64 | CC(C)C[C@@H]1NC(=O)[C@H](C)N(C)C(=O)[C@H]2CCCN2C(=O)[C@H](Cc2ccccc2)NC(=O)[C@@H](CC(C)C)N(C)C(=O)[C@H]2CCCN2C(=O)[C@H](CC(C)C)NC1=O |
| -5.85 | CC(C)C[C@H]1NC(=O)C[C@H](Cc2ccccc2)NC(=O)[C@H]2CCCN2C(=O)[C@H](Cc2ccccc2)NC(=O)CN(Cc2ccccc2)C(=O)[C@H]2CCCN2C(=O)[C@H](CC(C)C)N(C)C1=O |
| -6.39 | CC(C)C[C@@H]1NC(=O)[C@H](C)NC(=O)[C@H](Cc2ccccc2)NC(=O)[C@@H](CC(C)C)N(C)C(=O)[C@H]2CCCN2C(=O)[C@@H](CC(C)C)NC1=O |
| -5.33 | CC(C)C[C@@H]1NC(=O)C[C@H](Cc2ccccc2)NC(=O)[C@@H]2CCCN2C(=O)[C@H](Cc2ccccc2)NC(=O)[C@H](CC(C)C)N(C)C(=O)[C@H]2CCCN2C(=O)[C@H](CC(C)C)NC1=O |
| -5.59 | CC(C)C[C@H]1NC(=O)[C@@H](C)N(C)C(=O)[C@H](Cc2ccccc2)NC(=O)CN(Cc2ccccc2)C(=O)[C@H]2CCCN2C(=O)C[C@H](Cc2ccccc2)NC1=O |
| -5.37 | CC(C)C[C@H]1C(=O)N(C)[C@@H](CC(C)C)C(=O)N2CCC[C@H]2C(=O)N(Cc2ccccc2)CC(=O)N[C@@H](Cc2ccccc2)C(=O)N[C@H](C)C(=O)N1C |

3 of these entries, quoted again:

| structure (SMILES) | PAMPA (log10 cm/s) |
|---|---|
| CC(C)C[C@H]1NC(=O)C[C@H](Cc2ccccc2)NC(=O)[C@H]2CCCN2C(=O)[C@H](Cc2ccccc2)NC(=O)CN(Cc2ccccc2)C(=O)[C@H]2CCCN2C(=O)[C@H](CC(C)C)N(C)C1=O | -5.85 |
| CC(C)C[C@@H]1NC(=O)CN(Cc2ccccc2)C(=O)C[C@H](Cc2ccccc2)NC(=O)[C@H]2CCCN2C(=O)[C@H](Cc2ccccc2)NC(=O)[C@@H](CC(C)C)NC(=O)[C@@H]2CCCN2C1=O | -5.79 |
| CC(C)C[C@@H]1C(=O)N[C@H](CC(C)C)C(=O)N2CCC[C@@H]2C(=O)N[C@H](CC(C)C)C(=O)N[C@@H](Cc2ccccc2)C(=O)N2CCC[C@@H]2C(=O)N(C)[C@@H](C)C(=O)N1C | -5.66 |